{"source": "patent US7507803B2", "about": "“Optimized multi-epitope constructs and uses thereof” (priority 2002, dated 2009)", "key": {"H2^bxd mice": {"test_system": "H2^bxd mice", "assay": "CTL response after peptide/IFA immunization, in situ ELISA", "type": "in vivo, mouse", "settings": "peptide/IFA immunization of H2^bxd mice", "description": "HLA-A1 and -A24 transgenic mice are not currently available. However, a significant degree of similarity exists between the binding motifs of HLA-A24 epitopes and the murine class I K^d. We therefore tested four of the vaccine HLA-A24 epitopes for their capacity to bind purified K^d molecules in vitro and assessed immunogenicity. […] IFN-γ responses after in vitro restimulation ranged from 158.7 to 339.6 SU. […] Thus, the H2^bxd can be used in the absence of HLA-A24 transgenic mice."}, "HLA supertype alleles": {"test_system": "HLA supertype alleles", "type": "binding, human", "settings": "A2, A3 or B7 supertype; five most common members"}, "HLA transgenic mice": {"test_system": "HLA transgenic mice", "assay": "CTL priming in HLA transgenic mice after DNA immunization (in situ IFNγ ELISA or chromium release)", "settings": "mouse, in vivo"}}}
{"smiles": "CC[C@H](C)[C@H](NC(=O)[C@H](CCCCN)NC(=O)[C@H](CCC(=O)O)NC(=O)[C@H](C)NC(=O)[C@H](CO)NC(=O)[C@@H]1CCCN1C(=O)[C@@H](NC(=O)[C@H](Cc1ccc(O)cc1)NC(=O)[C@@H](N)CO)[C@@H](C)CC)C(=O)O", "note": "[CS 252, reference compound]", "values": [{"measurement": "Murine Immunogenicity (SU)", "setting": "H2^bxd mice", "value": 49.2, "unit": "SU"}]}
{"smiles": "CC(C)C[C@H](NC(=O)[C@@H](N)Cc1ccccc1)C(=O)N1CCC[C@H]1C(=O)N[C@@H](CO)C(=O)N[C@@H](CC(=O)O)C(=O)N[C@@H](Cc1ccccc1)C(=O)N[C@@H](Cc1ccccc1)C(=O)N1CCC[C@H]1C(=O)N[C@@H](CO)C(=O)N[C@H](C(=O)O)C(C)C", "note": "[core 18]", "values": [{"measurement": "XRN (number of supertype alleles bound ≦500 nM)", "setting": "HLA supertype alleles", "value": 5}, {"measurement": "Immunogenicity of the epitope in construct HBV30C", "setting": "HLA transgenic mice", "value": "poorly immunogenic"}]}
{"smiles": "CSCC[C@H](NC(=O)[C@H](Cc1ccc(O)cc1)NC(=O)[C@H](CO)NC(=O)[C@H](Cc1ccccc1)NC(=O)[C@H](C)NC(=O)[C@H](CC(C)C)NC(=O)[C@H](CS)NC(=O)[C@H](Cc1c[nH]cn1)NC(=O)[C@@H]1CCCN1C(=O)[C@@H](N)Cc1ccccc1)C(=O)O", "note": "[pol 530]", "values": [{"measurement": "XRN (number of supertype alleles bound ≦500 nM)", "setting": "HLA supertype alleles", "value": 5}]}
